In publication PMC9391358, “Crystal structures reveal catalytic and regulatory mechanisms of the dual-specificity ubiquitin/FAT10 E1 enzyme Uba6” (Nature Communications, 2022) one finds isothermal titration calorimetry data, which are given here for one compound.

The structures appear in SMILES notation.

In this test the target is T1, Uba1 (Uba1_WT) (Homo sapiens, UniProt P22314).
T1 sequence (P22314 2-1058): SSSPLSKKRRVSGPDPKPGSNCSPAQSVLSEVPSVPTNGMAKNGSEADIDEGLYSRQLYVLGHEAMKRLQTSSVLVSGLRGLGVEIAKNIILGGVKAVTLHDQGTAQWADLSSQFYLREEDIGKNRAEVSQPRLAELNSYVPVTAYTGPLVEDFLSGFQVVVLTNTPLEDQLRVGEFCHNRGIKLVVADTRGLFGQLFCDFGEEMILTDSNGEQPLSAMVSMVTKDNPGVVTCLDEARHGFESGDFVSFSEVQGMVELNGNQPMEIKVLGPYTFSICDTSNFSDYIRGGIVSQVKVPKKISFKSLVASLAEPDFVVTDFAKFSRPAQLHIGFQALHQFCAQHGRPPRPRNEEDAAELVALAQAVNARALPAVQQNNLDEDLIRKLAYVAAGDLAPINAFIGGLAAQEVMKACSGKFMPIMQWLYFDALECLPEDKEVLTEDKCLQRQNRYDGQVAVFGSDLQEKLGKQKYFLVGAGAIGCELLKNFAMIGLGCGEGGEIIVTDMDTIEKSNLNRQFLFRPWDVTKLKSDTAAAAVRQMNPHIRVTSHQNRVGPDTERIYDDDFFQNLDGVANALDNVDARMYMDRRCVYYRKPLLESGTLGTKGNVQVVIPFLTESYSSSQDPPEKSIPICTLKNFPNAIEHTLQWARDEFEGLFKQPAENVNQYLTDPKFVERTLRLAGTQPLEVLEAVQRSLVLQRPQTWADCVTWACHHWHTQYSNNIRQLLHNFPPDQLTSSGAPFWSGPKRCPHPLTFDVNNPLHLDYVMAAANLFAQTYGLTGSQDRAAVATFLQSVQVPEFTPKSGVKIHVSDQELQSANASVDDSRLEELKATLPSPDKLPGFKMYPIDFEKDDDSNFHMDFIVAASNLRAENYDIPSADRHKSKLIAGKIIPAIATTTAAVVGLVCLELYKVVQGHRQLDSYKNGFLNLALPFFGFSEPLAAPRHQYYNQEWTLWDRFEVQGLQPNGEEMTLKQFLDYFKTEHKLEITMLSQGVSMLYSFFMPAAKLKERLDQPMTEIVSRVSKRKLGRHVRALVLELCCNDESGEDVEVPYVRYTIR
The conditions noted are these: 25 °C, 20 mM HEPES pH 7.5, 150 mM NaCl, 0.5 mM TCEP; full-length or SCCH domain not told.

Take `O=P(O)(O)O[C@H]1[C@H](OP(=O)(O)O)[C@@H](OP(=O)(O)O)[C@H](OP(=O)(O)O)[C@@H](OP(=O)(O)O)[C@H]1OP(=O)(O)O` [InsP6]: the isothermal titration calorimetry result is listed as “Uba1 fails to exhibit detectable binding under the same conditions”.
